We go through one compound from ChEMBL document CHEMBL5584335, “Investigating Active Site Binding of Ligands to High and Low Activity Carbonic Anhydrase Enzymes Using Native Mass Spectrometry” (J Med Chem, 2024).

The target of the experiment is Carbonic anhydrase 2 (Homo sapiens) (UniProt P00918). Briefly: Binding affinity to human recombinant CA II expressed in Escherichia coli BL21 (DE3) cells assessed as normalized unbound protein/acetate-bound protein remaining at 18.18 uM at protein:compound ratio of 1:2 incubated for 30 mins by native mass spectrometry analysis relative to control.

Regarding `NS(=O)(=O)c1cc2c(cc1C(F)(F)F)NC(Cc1ccccc1)NS2(=O)=O` (stereo unspecified), the Activity was found to be 100%.
